# Measurements from US10781262B2, “Combination therapy of T cell activating bispecific antigen binding molecules and PD-1 axis binding antagonists” (Hoffmann-La Roche Inc., priority 2014, dated 2020).
# Test system: TIM-3 pathway, human lymphocytes
# Test: Mixed lymphocyte reaction (MLR), IFN-gamma release
# Format: cell-based
# Conditions: IL-2 20 U/ml
# Procedure: T cells in the assay were tested for activation and theier IFN-gamma secretion in the presence or absence of an anti-TIM-3 mAbs. Human Lymphocytes were isolated from peripheral blood of healthy donor by density gradient centrifugation using Leukosep (Greiner Bio One, 227 288). Briefly, heparinized blood were diluted with the three fold volume of PBS and 25 ml aliquots of the diluted blood were layered in 50 ml Leukosep tubes. After centrifugation at 800×g for 15 min at room temperature (w/o break) the lymphocyte containing fractions were harvested, washed in PBS and used directly in functional assay or resuspended in freezing medium (10% DMSO, 90% FCS) at 1.0E+07 cells/ml and stored in liquid nitrogen. […] The levels of IFN-gamma were measured using OptEIA ELISA kit (BD Biosciences).
substance,measurement,value
MLR + IL-2: rec hu IL-2 (20 EU/ml) used as positive control [reference compound],IFNgamma release of positive control (=100%),100%
